Our source for the Ratio IC50 values is ChEMBL document CHEMBL4813962, “Design, synthesis and biological evaluation of sulfamoylphenyl-quinazoline derivatives as potential EGFR/CAIX dual inhibitors” (Eur J Med Chem, 2021).

The species entered for assay [1] is Homo sapiens. The assay can be described thus: Selectivity index, ratio of IC50 for human carbonic anhydrase 2 to IC50 for human carbonic anhydrase 9.
Assay [2] deals with Epidermal growth factor receptor (Homo sapiens), P00533 [T790M]. The assay can be described thus: Potency index, ratio of IC50 of gefitinib to IC50 of compound for inhibition of recombinant human N-terminal GST-tagged EGFR T790M mutant (669 to 1210 residues) expressed in baculovirus expression system using peptide as substrate incubated for 2 hrs followed by substrate addition and measured after 30 mins by TR-FRET assay.

`NS(=O)(=O)c1ccc(CCNC(=S)Nc2ccc3ncnc(Nc4cccc(C(F)(F)F)c4)c3c2)cc1`: in assay [1], the Ratio IC50 is 0.8.

For `NS(=O)(=O)c1ccc(NC(=S)Nc2ccc3ncnc(Nc4cccc(C(F)(F)F)c4)c3c2)cc1`, the Ratio IC50 in assay [1] is 0.9.

With `COc1cc2ncnc(Nc3cccc(C(F)(F)F)c3)c2cc1OCCCCC(=O)Nc1ccc(S(N)(=O)=O)cc1`, the Ratio IC50 worked out at 2.4 in assay [1] and 41 in assay [2].

Consider `COc1cc2ncnc(Nc3ccc(Cl)c(C(F)(F)F)c3)c2cc1OCCCCC(=O)Nc1ccc(S(N)(=O)=O)cc1`, for which the Ratio IC50 in assay [1] was determined as 1.6.
